Key:
CB2 [1] = target: T1, CB2 (Homo sapiens, UniProt P34972); test: In-Cell western, ERK phosphorylation (Gαi/o) in HEK 293A cells transfected with hCB2; type: cell-based; set-up: expressed in transfected cells; conditions: 0.001-10 μM titrated compound, 10 min, with or without fixed co-ligand as in label; read-out: EC50 (nM) ± SEM, ERK (Gαi/o)
CB2 [2] = target: T1, CB2; test: In-Cell western, PLCβ3 phosphorylation (Gαq) in HEK 293A cells transfected with hCB2; type: cell-based; set-up: expressed in transfected cells; conditions: 0.001-10 μM titrated compound, 10 min, with or without fixed co-ligand as in label; read-out: EC50 (nM) ± SEM, PLCβ3 (Gαq)

By UniProt entry, the sequences of proteins in these tests, tags left out.
UniProt P34972, whole entry: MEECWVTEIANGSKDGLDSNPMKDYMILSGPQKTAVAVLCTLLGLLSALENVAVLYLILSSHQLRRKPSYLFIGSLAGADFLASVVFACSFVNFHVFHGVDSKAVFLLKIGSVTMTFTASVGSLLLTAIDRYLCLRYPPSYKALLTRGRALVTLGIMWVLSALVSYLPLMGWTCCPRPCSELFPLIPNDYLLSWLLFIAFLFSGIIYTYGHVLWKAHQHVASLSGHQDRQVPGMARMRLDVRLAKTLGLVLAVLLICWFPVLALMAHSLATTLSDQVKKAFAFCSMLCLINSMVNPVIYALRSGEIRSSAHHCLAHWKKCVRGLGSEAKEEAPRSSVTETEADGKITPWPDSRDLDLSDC

Work on C=C(C)[C@@H]1CCC(C)=C[C@H]1c1c(O)cc(CCCCC)cc1O [CBD, cannabidiol] yielded an EC50 (CB2 [1]) of 1290 ± 23 nM and an EC50 (CB2 [2]) of 977.9 ± 7.8 nM.
